B1: mKO2-tagged RIβ-I40V (natural protein)
chain: not shown
B2: mKO2-tagged RIβ-A67V (natural protein)
chain: not shown
B3: mKO2-tagged RIβ-R68Q (natural protein)
chain: not shown

Biological target: the molecule itself
Assay: non-reducing SDS-PAGE with Western blot

Protein	stoichiometry N
B1	2
B2	2
B3	2

— article doi:10.1101/2024.06.30.601371 (bioRxiv, 2024)
